Measured values as given in US20240002441.

Key:
SEQ ID NO: 2 (H2N-…-NH2) = target: T1, SEQ ID NO: 2 (H2N-…-NH2)
T1 chain: SLFELGKMIX

[1] = target: Synthetic amyloid-beta peptide 1-40, P05067
[2] = target: Synthetic amyloid-beta peptide (Aβ42), P05067

B1: Recombinant human neprilysin (protein)
chain: YDDGICKSSDCIKSAARLIQNMDATTEPCTDFFKYACGGWLKRNVIPETSSRYGNFDILRDELEVVLKDVLQEPKTEDIVAVQKAKALYRSCINESAIDSRGGEPLLKLLPDIYGWPVATENWEQKYGASWTAEKAIAQLNSKYGKKVLINLFVGTDDKNSVNHVIHIDQPRLGLPSRDYYECTGIYKEACTAYVDFMISVARLIRQEERLPIDENQLALEMNKVMELEKEIANATAKPEDRNDPMLLYNKMTLAQIQNNFSLEINGKPFSWLNFTNEIMSTVNISITNEEDVVVYAPEYLTKLKPILTKYSARDLQNLMSWRFIMDLVSSLSRTYKESRNAFRKALYGTTSETATWRRCANYVNGNMENAVGRLYVEAAFAGESKHVVEDLIAQIREVFIQTLDDLTWMDAETKKRAEEKALAIKERIGYPDDIVSNDNKLNNEYLELNYKEDEYFENIIQNLKFSQSKQLKKLREKVDKDEWISGAAVVNAFYSSGRNQIVFPAGILQPPFFSAQQSNSLNYGGIGMVIGHEITHGFDDNGRNFNKDGDLVDWWTQQSASNFKEQSQCMVYQYGNFSWDLAGGQHLNGINTLGENIADNGGLGQAYRAYQNYIKKNGEEKLLPGLDLNHKQLFFLNFAQVWCGTYRPEYAVNSIKTDVHSPGNFRIIGTLQNSAEFSEAFHCRKNSYMNPEKKCRVW
KM of rhNEP in the presence of SEQ ID NO:2 (QFS cleavage) (SEQ ID NO: 2 (H2N-…-NH2)): 8.7 ± 0.8 µM
vmax of rhNEP in the presence of SEQ ID NO:2 (QFS cleavage) (SEQ ID NO: 2 (H2N-…-NH2)): 0.035±0.002 µmol substrate cleaved/min
amount of Aβ40 remaining after 4 h of cleavage by NEP alone (LCMS peak area) (arbitrary units (peak area)) [1]: 3.2e+06
formation of Aβ1-12, Aβ1-16 and Aβ1-21 from Aβ42 by NEP over 24 h (LCMS) [2]: Levels of all three cleavage products increased over 24 h under each treatment
